Columns and labels:
[1] = test system: red brown colored mold slime causing defects; experiment: Sterilization/preservation treatment of filtrate line, paper machine Z (Example 10); conditions: intermittent introduction into the filtrate line after washing with NaOH
[2] = test system: fungi isolated from the slime in the filtrate line (red brown mold, genus Sarcinomyces); experiment: Effectiveness for fungi isolated from the slime in the filtrate line (Example 10)
Chaetomium elatum = experiment: Data base search for antimicrobial agent, filamentous fungus (Example 6); format: cell-based; conditions: judged by (minimum effective concentration)×(price) under the environmental condition of the machine

In the case of O=C1SSC(Cl)C1Cl (stereo not drawn), the “occurrence of defect on paper” value [1] is reported as “complete exclusion”, the “effectiveness for the fungi isolated from the slime in the filtrate line” value [2] is reported as “at the most effective” and the “effectiveness on the filamentous fungus” value (Chaetomium elatum) is reported as “effectiveness”.

Source: patent publication US20040132095A1, “Method of selecting antimicrobial agent and method of using the same” (priority 2001, published 2004)
